Reference: PMC5788402, “Impact of Target Warhead and Linkage Vector on Inducing Protein Degradation: Comparison of Bromodomain and Extra-Terminal (BET) Degraders Derived from Triazolodiazepine (JQ1) and Tetrahydroquinoline (I-BET726) BET Inhibitor Scaffolds” (Journal of Medicinal Chemistry, 2017)

The chains behind the UniProt entries cited, without tags or fusion partners. Residues count along the entry.
UniProt P40337, 54-213 limits assumed: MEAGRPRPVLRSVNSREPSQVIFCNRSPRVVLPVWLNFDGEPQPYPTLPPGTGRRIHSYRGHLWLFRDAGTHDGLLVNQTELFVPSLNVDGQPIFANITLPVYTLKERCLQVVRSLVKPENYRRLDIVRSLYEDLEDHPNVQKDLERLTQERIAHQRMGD

How the values were obtained:
Brd4^BD2 = Brd4^BD2 (Homo sapiens, UniProt O60885); assay: ITC binary titration, Brd4^BD2 into PROTAC; assay type: binding; conditions: Brd4^BD2 in syringe, PROTAC in cell
[1] = target: VCB / Brd4^BD2 ternary complex (Homo sapiens, UniProt O60885+P40337); assay: ITC ternary titration, VCB into Brd4^BD2–PROTAC complex; assay type: binding
[2] = ternary, VCB in syringe, Brd4^BD2–PROTAC in cell

stoichiometry N (Brd4^BD2): 0.91 ± 0.06
ΔG (Brd4^BD2): –10.3 ± 0.04 kcal·mol^–1
ΔH (Brd4^BD2): –11.1 ± 0.8 kcal·mol^–1
–TΔS (Brd4^BD2): 0.77 ± 0.80 kcal·mol^–1
ΔpKd ± uncertainty ([1]; ternary vs binary, Brd4^BD2): 0.95 ± 0.29
stoichiometry N [1, 2]: 0.83 ± 0.04
ΔG [1, 2]: –11.1 ± 0.3 kcal·mol^–1
ΔH [1, 2]: –8.47 ± 2.83 kcal·mol^–1
–TΔS [1, 2]: –2.59 ± 0.69 kcal·mol^–1
SMILES: Cc1ncsc1-c1ccc(CNC(=O)[C@@H]2C[C@@H](O)CN2C(=O)[C@@H](NC(=O)COCCOCCOCCNC(=O)C[C@@H]2N=C(c3ccc(Cl)cc3)c3c(sc(C)c3C)-n3c(C)nnc32)C(C)(C)C)cc1 [compound 6]
